According to PubChem BioAssay AID1565 (Sanford-Burnham Center for Chemical Genomics, 2009):
“And” between values parts separate entries of the source, which are not always exact repeats. Equal entries are not always repeated. The list shows a part of the results, in another mix than the full data. The source made the active and inactive calls. No stated cut-off is given here; in the data, active means inhibition above about 60%; inactive means the rest.

By UniProt entry, the sequences of proteins in these tests, tags left out. Where a name states a change or a piece, a line headed by the entry shows the natural chain unless it says otherwise.
UniProt Q8TCT1: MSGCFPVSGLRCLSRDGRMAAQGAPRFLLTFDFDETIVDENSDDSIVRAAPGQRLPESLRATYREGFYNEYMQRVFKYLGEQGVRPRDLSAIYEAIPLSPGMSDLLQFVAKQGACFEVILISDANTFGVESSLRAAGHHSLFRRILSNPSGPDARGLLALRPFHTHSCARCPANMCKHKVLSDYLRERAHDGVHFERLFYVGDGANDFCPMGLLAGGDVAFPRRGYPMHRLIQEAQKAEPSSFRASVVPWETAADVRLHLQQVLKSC

What follows are compounds tested against Phosphoethanolamine/phosphocholine phosphatase (Homo sapiens) (UniProt Q8TCT1) (assay: PubChem AID 1565). Conditions: recombinant PHOSPHO1, absorbance phosphatase assay; at 13.3 µM; stronger effect = higher value.
`CCCCOc1ccc(C(=O)NCC2(N3CCCCC3)CCCCC2)cc1OC` was tested, and the inhibition was inactive: 22.5%. In the case of `Cc1cc(SC(NC(=O)c2ccccc2)C(Cl)(Cl)Cl)nc(C(C)C)n1` (stereo not drawn), the inhibition is reported as inactive: 13.3%. With `CCOC(=O)Nc1ccc([As](=O)(O)O)c(O)c1` the inhibition was inactive: -9.7%. With `O=[N+]([O-])c1ccc(Nc2ccc(Oc3ccc([N+](=O)[O-])cc3[N+](=O)[O-])cc2)c([N+](=O)[O-])c1` the inhibition was inactive: 2.5%. In the case of `Cc1cc(SC(NC=O)C(Cl)(Cl)Cl)ncn1` (stereo not drawn), the inhibition is reported as inactive: 20.1%. `O=P(Nc1ccccn1)(c1cccc2ccccc12)c1cccc2ccccc12` was tested, and the inhibition was inactive: 11.9%. `CCOC(=O)Nc1cccc([As](=O)(O)O)c1` was tested, and the inhibition was inactive: 38.6%. With `O=C(COc1ccccc1)OC1CN2CCC1CC2` (stereo not drawn) the inhibition was inactive: -0.3%. In the case of `O=C(Nc1ccncc1[N+](=O)[O-])c1ccc([N+](=O)[O-])cc1[N+](=O)[O-]`, the inhibition is reported as inactive: 23.3%. With `COP1(=S)c2c(C)nn(CCC#N)c2N=C(c2ccc(F)cc2)N1C` (stereo not drawn) the inhibition was inactive: 48.3%. `CCC(C)N(CC(C)C)C(=S)SC(NC(C)=O)C(Cl)(Cl)Cl` (stereo not drawn) was tested, and the inhibition was inactive: 0.5%. For `CCOC(=O)c1ccc(NC(=O)C(C)(CCl)SC)cc1` (stereo not drawn), the inhibition was inactive: 36.2%. In the case of `O=C(OC1CN2CCC1CC2)c1cccc([N+](=O)[O-])c1` (stereo not drawn), the inhibition is reported as inactive: 32.7%. With `COc1ccc2nc(NP(=O)(c3ccccc3)c3ccccc3)sc2c1` the inhibition was inactive: 57.8%. In the case of `COc1cc(I)ccc1[As](=O)(O)O`, the inhibition is reported as inactive: 3.1%. For `O=C(OC1CN2CCC1CC2)C12CC3CC(CC(C3)C1)C2` (stereo not drawn), the inhibition was inactive: 4.7%. For `Cc1cc(=O)[nH]c(N[N+](=O)[O-])n1`, the inhibition was inactive: -15.7%. `Cc1c2c(nc3ccccc13)SC(C(Cl)Cl)C2` (stereo not drawn) was tested, and the inhibition was inactive: -75.3%. `COc1ccc(N/C(=N/P(=O)(N2CCOCC2)N2CCOCC2)N2CCOCC2)cc1` was tested, and the inhibition was inactive: -9.7%. `Cc1ccc2nc3c(c(C)c2c1)CC(C(Cl)Cl)S3` (stereo not drawn) was tested, and the inhibition was inactive: 14.1%. `Cc1ccc(OP(=O)(Nc2ccc([N+](=O)[O-])cn2)Oc2ccc(C)cc2)cc1` was tested, and the inhibition was inactive: 31.6%. For `C[As](=O)(O)c1cccc(C(=O)O)c1`, the inhibition was inactive: 38.6%. `O=[As](O)(c1ccc(O)cc1)c1ccccc1O` was tested, and the inhibition was inactive: 11.7%. `CCN(CC)C(=S)SC(NC=O)C(Cl)(Cl)Cl` (stereo not drawn) was tested, and the inhibition was inactive: 54.9%. In the case of `CC(C)NC(=O)NP(=O)(Oc1ccccc1)Oc1ccccc1`, the inhibition is reported as inactive: 19.2%. For `O=[N+]([O-])c1cc([N+](=O)[O-])c(-c2ccn[nH]2)s1`, the inhibition was inactive: -13%. With `CC(C)c1ccc(OP(=O)(Nc2ccccn2)Oc2ccccc2F)cc1` (stereo not drawn) the inhibition was inactive: 11.9%. `ClCCSc1nnc(-c2cccnc2)o1` was tested, and the inhibition was inactive: -8%. In the case of `O=C(O)COc1ccc([As](=O)(O)O)cc1[N+](=O)[O-]`, the inhibition is reported as inactive: 13.4%. In the case of `Nc1ccccc1[As](=O)(O)c1ccccc1`, the inhibition is reported as inactive: 33.1%. With `CS(=O)(=O)c1cc([N+](=O)[O-])c2no[n+]([O-])c2c1` the inhibition was active: 85%. For `CCOP1(=S)c2c(C)nn(CCC#N)c2N=C(c2ccccc2F)N1C` (stereo not drawn), the inhibition was inactive: 38%. For `O=P(Nc1nccs1)(c1ccccc1)c1nc2ccccc2s1` (stereo not drawn), the inhibition was active: 72.7%. In the case of `O=P(Nc1nccs1)(Oc1ccccc1)Oc1ccccc1`, the inhibition is reported as inactive: -10%. `O=[N+]([O-])c1ccc2c(c1)nnn2O` was tested, and the inhibition was inactive: 7.1%. In the case of `CN(C(=O)Cc1ccccc1)[C@@H]1CC[C@]2(CCCO2)C[C@H]1N1CCCC1`, the inhibition is reported as inactive: 8.5%. `CCOP1(=S)c2c(C)nn(CCC#N)c2N=C(c2ccc(F)cc2)N1C` (stereo not drawn) was tested, and the inhibition was inactive: 14.8%. For `NC(=O)Nc1ccc([As](=O)(O)O)cc1`, the inhibition was inactive: 35.3%. In the case of `O=[As](O)(c1cccc(O)c1)c1cccc(O)c1`, the inhibition is reported as inactive: -5.9%. In the case of `Cc1cccc(OCC(=O)OC2CN3CCC2CC3)c1` (stereo not drawn), the inhibition is reported as inactive: -9.3%. `COc1cc(C(=O)NCC2(N3CCOCC3)CCCCC2)cc(Cl)c1OC(C)C` was tested, and the inhibition was inactive: -20.9%. In the case of `O=[As](O)(O)c1cccnc1`, the inhibition is reported as inactive: 7.4%. With `CS(=O)(=O)c1ccc(Cl)c(NC(=O)COC(=O)C(O)(c2ccccc2)c2ccccc2)c1` the inhibition was inactive: 37%. With `O=C(OC1CN2CCC1CC2)c1ccc(Cl)cc1` (stereo not drawn) the inhibition was inactive: 12.3%. `COc1cc(C2NCCC3(OCCO3)C2(C)C)cc(OC)c1OC` (stereo not drawn) was tested, and the inhibition was inactive: -2.8%. In the case of `CCOP(=O)(Nc1cccc2ccccc12)OCC`, the inhibition is reported as inactive: -8.2%. With `CCCOP(=S)(Nc1nc(N)cc(=O)[nH]1)OCCC` the inhibition was inactive: -16.8%. With `Nc1cccc2c([As](=O)(O)O)cccc12` the inhibition was inactive: 5.2%. In the case of `Cc1ccc(NCCc2c([N+](=O)[O-])cc([N+](=O)[O-])cc2[N+](=O)[O-])cc1`, the inhibition is reported as inactive: -14.7%. With `Clc1n[nH]nc1-c1nn[nH][15n]1` the inhibition was inactive: 23.1%. In the case of `CC(C)(C)C(=O)NC(Sc1ncccn1)C(Cl)(Cl)Cl` (stereo not drawn), the inhibition is reported as inactive: 12.2%. `CCOP(=O)(Nc1ccc(C)cn1)OCC` was tested, and the inhibition was active: 62.2%. With `CCC1=CC2Cc3nc4ccc(Cl)cc4c(N)c3C(C1)C2` (stereo not drawn) the inhibition was inactive: 44.4%. With `O=P1(Nc2ccccn2)COc2ccccc2OC1` the inhibition was inactive: 6.4%. In the case of `CCOP(=O)(NC(=NC(C)c1ccccc1)NC(C)c1ccccc1)OCC` (stereo not drawn), the inhibition is reported as inactive: 22%. For `O=[As](O)(c1ccccc1Br)c1ccccc1Br`, the inhibition was inactive: 2.8%. In the case of `CN(C(=O)Cc1ccc(Cl)c(Cl)c1)[C@@H]1CCCC[C@H]1N1CCCC1`, the inhibition is reported as inactive: 35.7%. For `CC(C)/C=N\N=C(\N)N[N+](=O)[O-]`, the inhibition was active: 64.7%. With `O=C(/C=C/c1ccccc1)OC1CN2CCC1CC2` (stereo not drawn) the inhibition was inactive: 3.8%. With `CN(C)C1(CNC(=O)c2ccc(S(C)(=O)=O)cc2)CCCCC1` the inhibition was inactive: 36.8%. With `Cc1nn(-c2ccccc2)c2c1P(=O)(N1CCOCC1)N(C)C(c1ccccc1)=N2` (stereo not drawn) the inhibition was inactive: 24.2%. With `CC1CCC(C(C)C)C(OP(=O)(Nc2ccccn2)c2ccccc2)C1` (stereo not drawn) the inhibition was inactive: 0.1%. With `O=P1(Nc2ccc(Br)cn2)COc2ccccc2OC1` the inhibition was inactive: 1.8%. For `O=[As](O)(c1cccs1)c1cccs1`, the inhibition was inactive: 19.9%. With `Cc1ccc(OCC(=O)OC2CN3CCC2CC3)cc1` (stereo not drawn) the inhibition was inactive: -25.8%. With `Nc1cccc([As](=O)(O)c2ccccc2)c1` the inhibition was inactive: 3.1%. For `O=P1(Nc2ncccn2)COc2ccccc2OC1`, the inhibition was inactive: -2.7%. `O=P(Nc1nc2ccccc2s1)(c1ccccc1)c1ccccc1` was tested, and the inhibition was inactive: 32.7%. In the case of `C[C@H]1OP(=O)(Oc2ccccc2)[C@H](O)[C@H](O)[C@H]1N=[N+]=[N-]` (stereo partly drawn), the inhibition is reported as inactive: 13%. With `CN(C)C1(CNC(=O)c2ccc(Cl)c(S(N)(=O)=O)c2)CCCCC1` the inhibition was inactive: 19.7%. With `O=P(Nc1ccccn1)(c1ccc(Br)cc1)c1ccc(Br)cc1` the inhibition was inactive: 49.6%. For `Nc1ccc([As](=O)(O)c2ccc([N+](=O)[O-])cc2)cc1`, the inhibition was inactive: 8.3%. `C(Cc1nn[nH]n1)Cc1nn[nH]n1` was tested, and the inhibition was inactive: 4.9%. `O=C(OC1CN2CCC1CC2)c1cccc(Cl)c1` (stereo not drawn) was tested, and the inhibition was inactive: -41.5%. `O=[N+]([O-])c1ncn(CCn2cnc([N+](=O)[O-])n2)n1` was tested, and the inhibition was active: 65.5%. For `CC(=O)NC(SC(=S)N(C)C)C(Cl)(Cl)Cl` (stereo not drawn), the inhibition was inactive: -15.4%. `O=[N+]([O-])c1ccc(O)c(/C=N/Nc2ccc([N+](=O)[O-])cc2[N+](=O)[O-])c1` was tested, and the inhibition was inactive: -44%. `O=[As](O)(c1ccccc1)c1ccc(O)cc1` was tested, and the inhibition was inactive: 20.3%. With `c1nnnn1CCn1cnnn1` the inhibition was inactive: -16.2%. For `O=P(Nc1nccs1)(c1ccccc1)c1ccccc1`, the inhibition was inactive: 15.7%. With `CC(C)C(=O)NC(Sc1ccccc1)C(Cl)(Cl)Cl` (stereo not drawn) the inhibition was inactive: 6%. For `CC(C)(C)C(=O)NC(Sc1ccccc1)C(Cl)(Cl)Cl` (stereo not drawn), the inhibition was inactive: -7.1%. In the case of `O=P1(Nc2nc3ccc(Cl)cc3s2)COc2ccccc2O1` (stereo not drawn), the inhibition is reported as inactive: -7.4%. `CCOc1ccc(C2=NCC(CBr)S2)cc1` (stereo not drawn) was tested, and the inhibition was inactive: -22.6%. For `CC(=O)Nc1ccc([As](=O)(O)O)c(O)c1`, the inhibition was inactive: 24.6%. With `CC(=O)Nc1ccc(Oc2c([N+](=O)[O-])cc([N+](=O)[O-])cc2[N+](=O)[O-])cc1` the inhibition was inactive: 8.2%. With `C[C@@H]1C=CCP(=O)(Oc2ccccc2)O1` (stereo partly drawn) the inhibition was inactive: 17.5%. `C[C@H]1OP(=O)(Oc2ccccc2)C[C@@H]2O[C@@H]21` (stereo partly drawn) was tested, and the inhibition was inactive: 13%. For `O=C(NC1CCS(=O)(=O)C1)NP(=S)(Oc1ccccc1)Oc1ccccc1` (stereo not drawn), the inhibition was inactive: -5.9%. `CCNC(=S)/N=C(\N)N[N+](=O)[O-]` was tested, and the inhibition was inactive: 28.7%. With `c1ccc(-c2nn[nH]n2)c(-c2nn[nH]n2)c1` the inhibition was inactive: -7.2%. In the case of `CCOC(=O)NC(Sc1ccccc1)C(Cl)(Cl)Cl` (stereo not drawn), the inhibition is reported as inactive: 26.7%. For `Cc1ccc(NP(=O)(Oc2cccc(C)c2)Oc2cccc(C)c2)nc1`, the inhibition was inactive: 37.1%. `Cc1ccccc1OP(=O)(Nc1ccccn1)Oc1ccccc1C` was tested, and the inhibition was inactive: -7%. With `CN(C)C(=O)Oc1noc2ccccc12` the inhibition was inactive: 36.4%. For `O=c1c2cc([N+](=O)[O-])ccc2[nH]c2c([N+](=O)[O-])cc([N+](=O)[O-])cc12`, the inhibition was inactive: -39.1%. With `COC(=O)c1cc2c(s1)N=C(c1ccccc1)N(C)P2(=O)N1CCOCC1` (stereo not drawn) the inhibition was inactive: -23.1%. With `Cc1ccc(OP(=O)(Nc2ccccn2)Oc2ccc(C)cc2)cc1` the inhibition was inactive: 21.9%. `CC(=O)NC(SC(=S)N(CC(C)C)CC(C)C)C(Cl)(Cl)Cl` (stereo not drawn) was tested, and the inhibition was inactive: -2.6%. For `O=C(OC1CN2CCC1CC2)c1ccccc1` (stereo not drawn), the inhibition was inactive: 14.1%. In the case of `CCC(=O)N1C2C3N(C(=O)CC)C1C1N(C(=O)CC)C(C(N1C(=O)CC)N3C(=O)CC)N2C(=O)CC`, the inhibition is reported as inactive: 54.6%. With `CCOP(=O)(Nc1ccccc1)OCC` the inhibition was inactive: -7.4% and inactive: 18.9%. In the case of `Cc1cc(SC(NC(=O)c2ccc(F)cc2)C(Cl)(Cl)Cl)ncn1` (stereo not drawn), the inhibition is reported as inactive: -4.5%.
